Calls of active or inactive are those of the source. The rule behind the calls is not given here.
Target: Mu-type opioid receptor (Homo sapiens) (UniProt P35372)
Assay: OPRM1 activation in single-receptor cells, late-stage follow-up, counter-screen for OPRM1-OPRD1 heterodimer activator project, cell-based, luminescence, dose response (AID 651689)
Conditions: OPRM1 cell line, luminescence activation counterscreen

Sequences of proteins named here, by UniProt entry; tags and fusion partners are left off.
UniProt P35372, whole entry, looked up: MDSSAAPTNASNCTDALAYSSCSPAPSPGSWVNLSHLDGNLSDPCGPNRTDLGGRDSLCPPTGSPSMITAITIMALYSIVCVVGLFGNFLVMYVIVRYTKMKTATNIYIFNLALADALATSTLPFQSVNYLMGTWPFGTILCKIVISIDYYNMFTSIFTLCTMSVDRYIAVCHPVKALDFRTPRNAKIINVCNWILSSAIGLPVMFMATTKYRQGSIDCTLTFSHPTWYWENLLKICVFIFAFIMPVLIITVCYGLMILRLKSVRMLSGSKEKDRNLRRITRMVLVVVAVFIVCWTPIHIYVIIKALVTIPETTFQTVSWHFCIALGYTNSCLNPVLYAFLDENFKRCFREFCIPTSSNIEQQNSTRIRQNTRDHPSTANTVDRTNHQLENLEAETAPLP

CCOc1ccc(CN2CCC(Nc3cccc4ccccc34)CC2)cc1C#N
EC50: inactive: > 40 µM
